Apparent affinities of Ab-14 variants for a coronavirus HR2 peptide

Values reported by Engelhart et al. 2022, doi:10.1038/s41597-022-01779-4 (FLAb copy).

Antigen: PDVDLGDISGINAS, a 14-residue peptide of the SARS-CoV-2 spike HR2 region.

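In library AAYL49, one, two or three CDR residues were substituted; doubles and triples were drawn at random. Affinity was read by AlphaSeq, a pooled yeast mating assay with surface-displayed partners. Pairs that bind mate more often; barcode pairs of the diploids are counted by sequencing. Read counts were normalised to the haploid input and turned into Kd by a linear fit to BCL2-family pairs of known affinity, for each replicate. Each pool was mated in three replicate cultures.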

Each scFv is VH, a 15-residue (Gly4Ser)3 linker, VL, as in the parent Ab-14, and differs from it in the CDRs of the heavy chain only.
VH: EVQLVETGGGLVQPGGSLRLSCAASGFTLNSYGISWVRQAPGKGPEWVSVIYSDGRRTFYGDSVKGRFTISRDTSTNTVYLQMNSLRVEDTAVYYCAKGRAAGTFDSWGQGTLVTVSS
VL: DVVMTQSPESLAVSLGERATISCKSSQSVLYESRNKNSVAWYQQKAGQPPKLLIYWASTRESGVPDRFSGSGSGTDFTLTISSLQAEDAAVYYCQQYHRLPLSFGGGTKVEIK

Variants are written as CDR1, CDR2 and CDR3 of the heavy chain (limits as in the source). Parent: GFTLNSYGIS, VIYSDGRRTFYGDSVK, GRAAGTFDS.
Numbers give log10(Kd / nM), so 0 is 1 nM and 3 is 1 µM. Smaller is tighter.
An entry "nd" has no value in the source: the pair was not observed among the diploids in that replicate. This suggests poor binding but is not conclusive.
As a blank, each scFv also met three strains without target: over library AAYL49, 15% of these pairings were detected, typically at 4.06 and seldom below 2.83. For each scFv, signals with the empty controls are counted beside the result, with their mean in brackets.

CDR-H1,CDR-H2,CDR-H3,log10 Kd (nM) by replicate,empty controls
GFTLNSYGIS,PIYIDGRRTFYGDSVK,GRCAGTFDS,nd nd nd,0 of 9
GFTLNSYGIN,VYYSLGRRTFYGDSVK,GRAAGTFDS,nd nd nd,0 of 9
GFTLNSYGIS,VIISDGRRTFYGNSVK,GRASGTFDS,nd nd nd,0 of 9
GFRLNSYGIS,VIYSDGRRTFYGDIVT,GRAAGTFDS,nd 3.12 nd,2 of 9 (3.88)
GFTLNWYGIS,VIYSDGRRHFYGDSVK,GRAAGTFMS,nd nd nd,0 of 9
GFTLNSYGIS,VIYSDGRRTKYGDDVK,GRAHGTFDS,nd 3.50 4.79,2 of 9 (3.47)
GWTLNSYGIS,VCYSDGRRTFYGDSVK,GRAYGTFDS,nd nd 4.04,1 of 9 (4.13)
GFTLNSYGIS,VIYSDGRRKFYGDSVT,GRAAGTEDS,nd nd nd,2 of 9 (4.36)
GFTLNSYGIR,VIYSDGRRTFYYHSVK,GRAAGTFDS,nd nd nd,0 of 9
SFTLNSYGIS,VIYSDGRRTFYGDCVK,GRAAGTFIS,3.54 2.40 2.15,1 of 9 (4.69)
GFTDNSYGIS,VIYSDWRRTFYGDSVK,GRCAGTFDS,nd 3.71 nd,0 of 9
GFTLNWYGIS,VIYSDGRRTFTGDSVE,GRAAGTFDS,nd nd nd,0 of 9
GFTLNSYWIS,VIYSDGRRTFYGDSVK,GIAAGTFDS,nd 3.95 nd,0 of 9
GFTLDSYGIS,VIYSDGRRTFYGDSVK,GYAAGCFDS,1.24 1.17 1.24,0 of 9
GFTLNSYGIS,VDYSDGERTFYGDSVK,ARAAGTFDS,nd nd nd,0 of 9
GFTLNSVGIS,VIYSDMRRTFYGDSVK,GRAAGTFDS,nd nd nd,1 of 9 (4.00)
GFTLNDYGIS,VIYSDGRRTAYGDSVV,GRAAGTFDS,-0.13 0.18 -0.05,3 of 9 (4.35)
GFTLNSYGII,VIYSDGRRTFYGDSVK,GKAAGTFDH,nd nd 3.82,1 of 9 (3.34)
GPTLNSYGIS,VIYSDGRRTSYGDSVH,GRAAGTFDS,2.98 2.89 2.72,0 of 9
GFTLNSYGIS,VIYSDGRRTFYGDSVK,GRAAGSQDL,nd nd nd,0 of 9
GFTLNSYDIS,VIYSDARRTFYGDSVK,GRAAGTFDM,nd nd nd,2 of 9 (3.89)
GFTLNSYGIS,VIYSDGRRTFYWDSVK,AIAAGTFDS,nd 3.31 nd,0 of 9
GFTLNSYGIS,EIYSDGRRTFYGDSVM,GRPAGTFDS,nd nd nd,0 of 9
GDTLNSTGIS,VIYCDGRRTFYGDSVK,GRAAGTFDS,5.93 5.15 nd,0 of 9
GFTLNSYDIS,VIGSDGRRTFYGDSVK,GRAAATFDS,nd nd nd,1 of 9 (3.71)
GFTLNSYGIS,VIYSGGRRTFYGDSVK,GRAAGYFAS,nd nd 3.18,1 of 9 (2.12)
GFTLRSYGIS,RIYSDGRRTFYGDSMK,GRAAGTFDS,nd 3.71 5.73,1 of 9 (4.67)
GFTLNSYGIS,VIYSDATRTFYGDSVK,GRAAGTFDN,nd nd nd,0 of 9
GFCLNSYGIS,VIYSDGTRTFYGDSVK,GVAAGTFDS,3.08 2.13 3.10,0 of 9
GFTLNSYGIS,VIYSDGRRAFYGDSHK,GRAAGTFDL,5.37 nd 4.77,2 of 9 (3.91)
GFTLVSYGIS,VIYSDGRRTFYGDSVK,GRAAGNFDC,nd 4.92 nd,0 of 9
GFVLNEYGIS,VIYSDGRRTFYGDSVK,GRAGGTFDS,0.71 0.95 0.86,3 of 9 (5.36)
GFTLNSYMIS,VTYSDGRRTSYGDSVK,GRAAGTFDS,4.56 4.44 nd,5 of 9 (5.04)
GFTLNSYGIS,VIYSDNRRTFYGDSVK,GRRAGTVDS,nd nd nd,0 of 9
GFTLNSYGIS,VIYMVGRTTFYGDSVK,GRAAGTFDS,nd nd 2.74,2 of 9 (3.93)
GFVLNSYGIS,VIYSDGRRTFYGPSVK,GRAAGLFDS,nd nd nd,0 of 9
GFTANSYGIS,VIYSDGRRTFYGDRVK,GRAAGTFDW,nd nd nd,2 of 9 (2.59)
GFELNSYGIM,VIYSDGRRTFYGDSVK,GRAAGTFDK,nd nd nd,1 of 9 (4.00)
GGTLNSYGIS,TIYSDGRRTFYGDSVK,GRAAGTFDS,nd 4.08 nd,2 of 9 (4.41)
GFTLNSYGIS,VIYSDGRRTFYGDSVK,GRAAGQFDS,nd nd nd,1 of 9 (3.67)
GFTLNSRGIS,VIYSDGRRTFYGDCVK,GRAAGMFDS,nd nd nd,2 of 9 (3.74)
GFTLNSYGCS,VIYSDGRRTEYGDSVK,GRAAGTFDN,5.09 5.68 nd,5 of 9 (4.47)

Again, the first 4 entries without any signal:

CDR-H1	CDR-H2	CDR-H3	log10 Kd (nM) by replicate	empty controls
GFTLNSYGIS	PIYIDGRRTFYGDSVK	GRCAGTFDS	nd nd nd	0 of 9
GFTLNSYGIN	VYYSLGRRTFYGDSVK	GRAAGTFDS	nd nd nd	0 of 9
GFTLNSYGIS	VIISDGRRTFYGNSVK	GRASGTFDS	nd nd nd	0 of 9
GFTLNWYGIS	VIYSDGRRHFYGDSVK	GRAAGTFMS	nd nd nd	0 of 9